Laboratory results: patent US7598384B2, “Tetrahydroquinolinones and their use as antagonists of metabotropic glutamate receptors” (Merz Pharma GmbH & Co. KGAA, priority 2004, dated 2009)

Protein sequences, listed by entry. Tags and fused reporters are not part of them. Residues count along the entry.
UniProt P31424, 21-1203: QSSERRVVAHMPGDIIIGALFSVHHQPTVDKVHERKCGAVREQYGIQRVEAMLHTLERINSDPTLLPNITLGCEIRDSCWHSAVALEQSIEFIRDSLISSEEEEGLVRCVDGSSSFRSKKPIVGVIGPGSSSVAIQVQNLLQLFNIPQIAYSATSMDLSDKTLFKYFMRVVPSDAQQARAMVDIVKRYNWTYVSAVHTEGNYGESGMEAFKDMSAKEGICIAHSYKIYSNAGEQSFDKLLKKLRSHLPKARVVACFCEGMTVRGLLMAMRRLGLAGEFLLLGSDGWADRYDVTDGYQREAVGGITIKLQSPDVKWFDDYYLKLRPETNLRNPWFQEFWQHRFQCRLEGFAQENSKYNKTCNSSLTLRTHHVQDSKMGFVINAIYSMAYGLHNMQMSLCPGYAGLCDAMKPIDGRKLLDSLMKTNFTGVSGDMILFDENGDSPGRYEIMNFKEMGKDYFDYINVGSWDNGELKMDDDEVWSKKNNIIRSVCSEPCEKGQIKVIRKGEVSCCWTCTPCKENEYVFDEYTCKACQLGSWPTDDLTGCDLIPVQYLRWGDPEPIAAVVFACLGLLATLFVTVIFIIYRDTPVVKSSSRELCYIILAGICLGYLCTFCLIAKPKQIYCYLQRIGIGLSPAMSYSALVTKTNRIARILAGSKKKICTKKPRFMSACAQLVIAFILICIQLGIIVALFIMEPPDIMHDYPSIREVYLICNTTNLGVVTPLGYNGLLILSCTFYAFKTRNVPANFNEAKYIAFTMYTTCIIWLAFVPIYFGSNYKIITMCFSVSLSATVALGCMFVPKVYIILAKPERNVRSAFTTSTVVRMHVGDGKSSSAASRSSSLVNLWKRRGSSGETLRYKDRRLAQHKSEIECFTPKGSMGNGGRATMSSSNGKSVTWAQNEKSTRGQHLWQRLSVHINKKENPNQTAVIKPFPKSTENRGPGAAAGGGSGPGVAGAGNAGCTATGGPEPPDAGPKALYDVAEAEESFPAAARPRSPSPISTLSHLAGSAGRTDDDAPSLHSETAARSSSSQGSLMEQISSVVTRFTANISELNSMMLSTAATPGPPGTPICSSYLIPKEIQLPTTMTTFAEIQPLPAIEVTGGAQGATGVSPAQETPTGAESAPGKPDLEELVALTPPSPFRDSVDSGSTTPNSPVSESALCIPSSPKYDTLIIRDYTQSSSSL

Biological target: T1, transmembrane allosteric modulatory sites of mGluR5 receptors (Rattus norvegicus, UniProt P31424)
T1 construct: The cortex is dissected and homogenized in 20 volumes of ice-cold 0.32 M sucrose; from tissue; host or cells: rat cerebral cortex membranes (male Sprague-Dawley)
Assay: [3H]MPEP binding to rat cortical membranes
Conditions: read-out: Kd of the radioligand by Scatchard analysis
Experimental: Preparation of Rat Cortical Membranes:
Male Sprague-Dawley rats (200-250 g) are decapitated and their brains are removed rapidly. The cortex is dissected and homogenized in 20 volumes of ice-cold 0.32 M sucrose using a glass-Teflon homogenizer. The homogenate is centrifuged at 1000×g for 10 min. […] All centrifugation steps are carried out at 4° C. After resuspension in 5 volumes of 50 mM Tris-HCl, pH 8.0 the membrane suspension is frozen rapidly at −80° C.
Incubations are terminated using a Millipore filter system.

Cc1cccc(C#Cc2ccccc2)n1 [(^3H)-MPEP]
Kd: 13.6 nM
